This note sets out measurements from PubChem BioAssay AID526 (National Center for Advancing Translational Sciences (NCATS), 2006).

The list shows a part of the results. Calls of active or inactive are those of the source. The call rests on the fitted dose curve; in most records, active means well fitted activation curve with a large enough effect (not every such curve was filed as active); inconclusive means small, poorly fitted or top-dose-only effect, or another doubt; inactive means no such curve, though single readings can be large or run the other way.

The assay is described as follows: Ubiquitin-GFP Assay. The note with it: Ubiquitin-GFP reporter cells, proteasome inhibition, GFP fluorescence, untreated = 0%, 10 µM MG-132 = 100%; at 45.9 µM (top of the series) unless noted. From the text:
NIH Chemical Genomics Center [NCGC]
NIH Molecular Libraries Screening Centers Network [MLSCN]
The ubiquitin-proteasome pathway is present within all eukaryotic cells and plays roles in normal cellular functions and disease-related dysfunction. Proteins are tagged with a poly-ubiquitin chain that targets them for the proteasome, a multimeric protease, that degrades the protein into peptides and free ubiquitin. The proteasome has a key role in regulating cell cycle and growth and is known to control the levels of cyclins and CDK inhibitors as well as tumor suppressor proteins. Additionally, the activation of NF- B is controlled by ubiquitin-labeling and degradation of the inhibitory protein I B . […] With this in mind, proteasome inhibitors such as MG-132 and PS-341 have been used to inhibit tumor cell growth.
A cellular assay for ubiquitin-proteasome function was used to find chemical probes of this pathway. The assay used an ubiquitin-GFP construct expressed in U2OS cells (BioImage). Under basal conditions little GFP can be detected as it is degraded by the proteasome. However, treatment of the cells with a proteasome inhibitor such as MG-132 results in a rise in GFP levels that can be detected in as little as four hours. We used the Acumen-Explorer laser plate cytometer having a 488 nm laser as an excitation light source to detect the GFP. Compounds were screened in 1536-well plates using qHTS with a concentration-titration series range that varied from 46 uM to 2.9 nM.
NCGC Assay Protocol Summary:
Cells (U20S ps 2042) expressing ubiquitin (G76V-GFP) were maintained in DMEM with Glutamax-1 and high glucose, 10% FBS, 1% (v/v) penicillin-streptomycin, 0.5 mg/mL Geneticin (G418). The cells were seeded in 1536-well plates using a solenoid-based dispenser at 700 cells/5ul in DMEM medium with Glutamax-1 and high glucose containing 0.5% FBS, w/o phenol red, 25 mM HEPES. The plates were incubated at 37 °C/5% CO2 overnight. Then 23 nl of MG-132 in DMSO was added to the control wells at a final concentration of 10 uM. Next, 23 nL of library compounds in DMSO were added to the sample wells. The plates were incubated for 4 hrs at 37 °C/5% CO2. Following this incubation the plates were read on the Acumen using a cell object definition of 15 to 100 um in width and depth and a window of Total Intensity of between 77,200 and 2,720,000 FLU to enumerate GFP-expressing cells.
The %Activity was determined from the basal and MG-132 treated control wells. %Activity was determined by normalizing to the difference in signal between basal cells (0% Activity) and cells incubated with 10 uM of the proteasome inhibitor MG-132 (100% Activity). Concentration-response curves were fitted to the signals arising from the GFP fluorescence.
Assay Protocol Summary Table
Sequence Parameter Value Description
2. Time O/N 37C incubation
4. Compound 23 nL Libraries (46 uM to 2.9 nM)
5. Time 4 hr 37C incubation
6. Detector Acumen Total Intensity, GFP fluorescence (488 ex/515 em)
Keywords: NIH Roadmap, MLSCN, MLI, MLSMR, BioImage, proteasome, ubiquitin-GFP, qHTS, NCGC
For `Cc1ccc(C)c(NP(C)(=O)Oc2ccccc2)c1` (centres undefined), the activation (GFP accumulation) was inactive: -8.33%.

Regarding `Cc1nc2ccc3ccccc3c2s1.O=[N+]([O-])c1cc([N+](=O)[O-])c(O)c([N+](=O)[O-])c1`, the activation (GFP accumulation) was inactive: 8.51%.

For `CP(=O)(NC(=O)Nc1ccccc1)Oc1ccccc1` (centres undefined), the activation (GFP accumulation) is inactive: 0.862%.

On to `CCOP(C)(=S)SCC(=O)NC(C)C(=O)O` (centres undefined), for which the activation (GFP accumulation) is inactive: -6.25%.

Turning to `N1=C(c2nnc(-c3nn[nH]n3)nn2)NNN1`, the activation (GFP accumulation) was inactive: -1.45% [at 9.17 µM].

For `Cc1ccc(NP(C)(=O)Oc2ccccc2)c(C)c1` (centres undefined), the activation (GFP accumulation) is inactive: 15.4%.

On to `COc1ccccc1OP(C)(=O)Nc1ccc(C)cc1` (centres undefined), for which the activation (GFP accumulation) is inactive: -0.811%.

Regarding `CP(=O)(Nc1ccccn1)Oc1ccccc1` (centres undefined), the activation (GFP accumulation) was inactive: 6.83%.

Regarding `COc1ccccc1OP(C)(=O)Nc1ccc(C)c(C)c1` (centres undefined), the activation (GFP accumulation) was inactive: -0.575%.

As for `Cc1nc2ccc3ccccc3c2o1.O=[N+]([O-])c1cc([N+](=O)[O-])c(O)c([N+](=O)[O-])c1`, the activation (GFP accumulation) was inactive: 1.16%.

For the molecule `C/C1=C2N=C(/C=C3N=C(/C(C)=C4\[N-][C@@](C)([C@H]5N=C1[C@@](C)(CCC(=O)NC[C@H](C)OP(=O)([O-])O[C@@H]1[C@H](O)[C@H](n6cnc7cc(C)c(C)cc76)O[C@@H]1CO)[C@@H]5CC(N)=O)[C@](C)(CC(N)=O)[C@H]4CCC(N)=O)[C@@](C)(CC(N)=O)[C@@H]\3CCC(N)=O)C(C)(C)[C@@H]/2CCC(N)=O.[C-]#N.[Co+3]`, the activation (GFP accumulation) was inactive: -7.53% [at 20.5 µM].

Regarding `N#[O+].[C-]#N.[C-]#N.[C-]#N.[C-]#N.[C-]#N.[Fe+2].[Na+].[Na+]`, the activation (GFP accumulation) is inactive: 1.69%.

`CP(=O)(Oc1ccccc1)N1CCOC1=O` (centres undefined): the activation (GFP accumulation) is inactive: 11%.

Turning to `COc1ccccc1OP(C)(=O)Nc1c(C)n(C)n(-c2ccccc2)c1=O` (centres undefined), the activation (GFP accumulation) was inactive: 0%.

On to `CCOP(C)(=S)SCC(=O)NC(C)(CC)C(=O)O` (centres undefined), for which the activation (GFP accumulation) is inactive: -4.5%.

In the case of `CP(=O)(Nc1ccc2c(c1)OCCO2)Oc1ccccc1` (centres undefined), the activation (GFP accumulation) was inactive: -0.0621%.

For `NNC(NN)NN.n1nc(-c2nn[nH]n2)n[nH]1`, the activation (GFP accumulation) is inactive: -7.03% [at 9.17 µM].

For `CN(C)CCOC(=O)C(O)(c1ccccc1)C1CCCCC1` (centres undefined), the activation (GFP accumulation) is inactive: -2.56%.

As for `CP(=O)(Nc1ccccc1F)Oc1ccccc1` (centres undefined), the activation (GFP accumulation) is inactive: 0.64%.
